Measured affinities in a library of Ab-14 light chain variants

The measurements come from Li et al. 2023 (doi:10.1038/s41467-023-39022-2) through the FLAb antibody collection.

The target is the same throughout: PDVDLGDISGINAS, from the HR2 region of SARS-CoV-2 spike.

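Phage display of a naive human antibody library on the peptide gave the parent. These sequences belong to a second round, designed from the earlier measurements on random variants of the parent. Several design methods are mixed in this list. The scFvs were displayed on barcoded MATa yeast, the peptide on MATalpha yeast. Binding brings cells together so that they mate, and sequencing counts the barcode pairs among the diploids. A regression on co-assayed BCL2-family reference pairs converts the normalised counts of each replicate to an apparent Kd. There are six technical replicates.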

Parent: Ab-14, a human scFv built as VH, three GGGGS repeats, VL. Only the CDRs of the light chain vary.
VH: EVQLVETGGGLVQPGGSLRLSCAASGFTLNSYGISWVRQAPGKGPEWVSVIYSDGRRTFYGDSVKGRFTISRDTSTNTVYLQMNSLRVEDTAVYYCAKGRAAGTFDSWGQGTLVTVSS
VL: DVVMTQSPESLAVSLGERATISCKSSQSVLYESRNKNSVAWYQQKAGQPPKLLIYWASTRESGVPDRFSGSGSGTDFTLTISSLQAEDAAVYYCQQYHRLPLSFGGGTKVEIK

Each variant is given by its three light chain CDRs, as the data file delimits them; those of the parent are KSSQSVLYESRNKNSVA, WASTRES, QQYHRLPLS. Affinities are written as log10 Kd with Kd in nM; a lower number is a better binder. A mean of the replicates is given; it leaves out those without a signal. "not detected" marks a missing value. The strain was present, yet no cells mated with the target were sequenced in any replicate, which points to weak or no binding. As a blank, each scFv also met three strains without target: over all light chain designs, 4% of these pairings were detected, typically at 2.64 and seldom below 1.59. Also given: how often the same scFv was detected with the empty control strains. The range of this assay differs from that of the first round, and the authors advise against merging the two. A sequence that the file lists under several names has all its replicates pooled. The parent sequence was in this pool as ten entries: three were never detected, three once, and four in most replicates, with averages from 0.34 to 2.37. In the paper, a design with two or fewer of six values counts as a poor binder.

CDR-L1,CDR-L2,CDR-L3,"log10 Kd (nM), mean",detected,control signals
KSGQGQLYESRNKNSVA,GASQRWS,QQYHRLPLS,1.32,6 of 6,0 of 18
KSLQSVLYESRNKNFVA,HASTLED,QQYHCLPLS,not detected,0 of 6,0 of 18
NISIEDVSEHNQANNVA,STDCRCD,QQYFMLPLM,1.41,6 of 6,1 of 18
KVAQSVLYESRNKNSVA,EASTRES,QQYHRLPLS,-0.33,6 of 6,1 of 18
KSSQSVLYTSRNKQSVA,NASTRES,QAYHRLPCS,not detected,0 of 6,0 of 18
KIAATALYESGNANSVA,QNSTRES,QQYHRLPLS,1.62,6 of 6,1 of 18
KIHCRELMHGGQINNIA,EAAKLVE,QQYALLPLA,1.25,6 of 6,0 of 18
MISQLMNMGQFAINSVA,QASLRYN,QQYDRLPLT,1.36,1 of 6,0 of 18
KLSPSEMYESRMKNSVA,MASTRYT,QQYHRLPLS,0.93,6 of 6,1 of 18
RMSQSVLYESRNKNSVA,DASTRES,QQYHRLPLS,-0.41,6 of 6,0 of 18
KLEMSELYESRNKNSVA,NASTRES,QQYHRLPLS,-0.22,6 of 6,4 of 18
KSSQAVLYESRNKNSVA,NASTRNS,QQYCRLPLT,0.03,6 of 6,5 of 18
KSSQSVLYESRNKNSVA,NASTRMS,QQYHRLPLS,0.43,12 of 12,1 of 36
KWQQSELQSSRNKNSVA,NASERES,QQYHRLPLS,0.18,6 of 6,2 of 18
KQSQSVLYPSRNKNSVA,WASERES,QQYHVLPLS,2.33,1 of 6,0 of 18
KCSQSVLYESTNKNSVA,WASTRES,QGYHRLPLS,2.77,2 of 6,0 of 18
KLQSLELYESRNKNNVA,SASTRYS,QQYHRLPLS,0.70,6 of 6,1 of 18
KLSGLMASSKFIKNNVA,ENNTRED,QQYDRLPLS,not detected,0 of 6,1 of 18
WSSQSSLYESTNKISVA,WASTRES,QQYHRLPLG,not detected,0 of 6,0 of 18
KSSQSVLYESRNKWSVA,WASTRES,QTYHRLPLS,not detected,0 of 6,0 of 18
MISQVMNTLTRYGNNVA,DLENRED,QQYFRLPLS,2.00,6 of 6,0 of 18
TISQMTSWMSNKKANVA,EVSTREK,QQYDRLPLS,0.46,6 of 6,0 of 18
HITYGMMVHGRHSSSIA,QASTRAK,QQYDRLPLA,not detected,0 of 6,0 of 18
KVQLGLERGNQAYSAVA,GETQKGD,QQYFQLPLG,0.85,6 of 6,0 of 18
KLTMITGLEKVSGNNVA,EMETREK,QQYNRLPLS,0.13,6 of 6,0 of 18
KVSPSWQYESRNKQSVA,HASQREE,QQYHRLPLS,0.64,6 of 6,1 of 18
TLSDLMYMESRNYNSVA,DLVKRED,QQYHRLPLS,-0.28,6 of 6,0 of 18
KLSSITGHMQVEKNNVA,EMETREN,QQYDRLPLS,0.84,6 of 6,0 of 18
KSSQSVDYESVNKNSVA,WASTRES,CQYHRLPLS,1.17,5 of 6,0 of 18
KLSSHEQHGTAQNSAMA,NATVSTQ,QQYSRLPLS,-0.24,6 of 6,0 of 18
MLYGLSASMSKNKNNVA,EMTTREV,QQYDRLPLV,1.70,1 of 6,1 of 18
KVSQSHLYESRNKNSVA,QASTRES,QQYHRLPLM,0.45,6 of 6,1 of 18
KLLSLSLHQTGKLNSVA,DAEITQT,QQYMSLPLM,1.81,5 of 6,0 of 18
KIGMTLNTLMHKQNNVA,DLVQREN,QQYFRLPLS,0.37,6 of 6,0 of 18
KLSGSMLYESRNKNSVA,NASTRES,QQYHRLPLS,-0.36,6 of 6,0 of 18
KLSQEDWYESRNCNSVA,QASTREQ,QQYHRLPLS,0.49,6 of 6,1 of 18
KLQQSELYEERNSNSVA,HASLRES,QQYHRLPLS,-0.14,6 of 6,0 of 18
MLYGLSVSMSKNTNNVA,EMTTREK,QQYDRLPLI,1.81,5 of 6,0 of 18
KLALITGLEKVSKNNVA,EMETRER,QQYNRLPLS,0.00,6 of 6,2 of 18
KISQSEYYEDANKMSVA,SASTRLS,QQYHRLPLS,-0.13,6 of 6,1 of 18
KCSQEVLYESNNKNSVC,WASTRES,QQYMRLPLS,0.24,2 of 6,0 of 18
NISHFMDTTAKHNNNVA,EMTMREN,QQYHHLPLS,0.58,6 of 6,1 of 18
KWSQSVLYEQRDKNSVA,NASTRCQ,QQYHRLPLS,0.30,6 of 6,2 of 18
KFSQLWMYEQRNKNSVA,NASQRED,QQYHRLPLS,-0.15,6 of 6,3 of 18
MVYQAAMMGTSTRNSIA,NAEMRPD,QQYHRLPLE,1.23,6 of 6,0 of 18
KVSQEMLYESRNKNSVA,DASTRES,QQYHRLPLS,-0.41,6 of 6,0 of 18
KSSQSDLYESRNKNSVA,GASTRES,QNYHRLPLS,0.49,6 of 6,2 of 18
KLQQSELYESRNKNSVA,NASLRES,QQYHRLPLS,-0.11,6 of 6,1 of 18
KISQSVLYESRNKNSVA,DASTRET,QQYHRLPLS,-0.37,6 of 6,1 of 18
KNSQSVLYESRNKNSVA,NASTRES,QQYHRLPLS,-0.51,6 of 6,1 of 18
KLRMMTGYESRNKDSIA,DNSTRGR,QQYHRLPLS,1.49,6 of 6,0 of 18
MYSQSYLGEQRNANSVA,NASTREE,QQYHRLPLS,-0.52,6 of 6,1 of 18
KVSQSTLYEDRNKNSVA,NASVRES,QQYHRLPLS,-0.16,6 of 6,0 of 18
TIGGTLMMGYKQRSNVA,EVSQRLN,QQYDRLPLM,0.99,6 of 6,1 of 18
KLPQSTLYESRNPNSVA,NASTRES,QQYHRLPLS,-0.29,6 of 6,4 of 18

The 8 strongest on average among those seen in every replicate, once more:

CDR-L1	CDR-L2	CDR-L3	log10 Kd (nM), mean	detected	control signals
MYSQSYLGEQRNANSVA	NASTREE	QQYHRLPLS	-0.52	6 of 6	1 of 18
KNSQSVLYESRNKNSVA	NASTRES	QQYHRLPLS	-0.51	6 of 6	1 of 18
KVSQEMLYESRNKNSVA	DASTRES	QQYHRLPLS	-0.41	6 of 6	0 of 18
RMSQSVLYESRNKNSVA	DASTRES	QQYHRLPLS	-0.41	6 of 6	0 of 18
KISQSVLYESRNKNSVA	DASTRET	QQYHRLPLS	-0.37	6 of 6	1 of 18
KLSGSMLYESRNKNSVA	NASTRES	QQYHRLPLS	-0.36	6 of 6	0 of 18
KVAQSVLYESRNKNSVA	EASTRES	QQYHRLPLS	-0.33	6 of 6	1 of 18
KLPQSTLYESRNPNSVA	NASTRES	QQYHRLPLS	-0.29	6 of 6	4 of 18